Experiments:
human V2 receptor = human V2 receptor (Homo sapiens, UniProt P30518); experiment: Cellular in vitro assay for determining the vasopressin receptor activity (aequorin luminescence); conditions: read-out: IC50 hV2; CHO cell line transfected with the human V2 receptor (and Gα16); agonist [Arg8]-vasopressin
Text: (§1) B-1. Cellular In Vitro Assay for Determining the Vasopressin Receptor Activity
(§2) The identification of agonists and antagonists of the V1a and V2 vasopressin receptors from humans and rats and also the quantification of the activity of the substances described here took place using recombinant cell lines. These cells derive originally from a hamster ovary epithelial cell (Chinese Hamster Ovary, CHO K1, ATCC: American Type Culture Collection, Manassas, Va. 20108, USA). […] The resulting vasopressin receptor test cells react to stimulation of the recombinantly expressed vasopressin receptors by intracellular release of calcium ions, which can be quantified by the resulting aequorin luminescence using a suitable luminometer (Milligan G., Marshall F., Rees S., Trends in Pharmaco. Sci. 17 (1996) 235-237).
(§3) On the day before the assay, the cells are plated out in culture medium (DMEM, 10% FCS, 2 mM glutamine, 10 mM HEPES) in 384-well microtiter plates and kept in a cell incubator (96% humidity, 5% v/v carbon dioxide, 37° C.). […] The test substances in various concentrations are placed for 10 to 20 minutes in the wells of the microtiter plate before the agonist [Arg8]-vasopressin is added, and the resulting light signal is measured immediately in the luminometer. The IC50 values are calculated using the GraphPad PRISM computer program (Version 3.02). […]

Amino acid sequences for entries named in this document (tags omitted).
UniProt P30518, whole entry: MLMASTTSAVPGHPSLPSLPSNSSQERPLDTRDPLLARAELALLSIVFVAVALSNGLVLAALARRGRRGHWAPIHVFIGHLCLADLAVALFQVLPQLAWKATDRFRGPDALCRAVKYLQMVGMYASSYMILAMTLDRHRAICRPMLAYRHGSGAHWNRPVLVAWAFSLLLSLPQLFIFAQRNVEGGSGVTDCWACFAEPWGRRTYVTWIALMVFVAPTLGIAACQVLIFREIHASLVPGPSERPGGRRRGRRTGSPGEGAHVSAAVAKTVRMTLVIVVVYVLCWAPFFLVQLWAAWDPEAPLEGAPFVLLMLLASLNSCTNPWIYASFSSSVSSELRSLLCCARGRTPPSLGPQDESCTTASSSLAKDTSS
UniProt P37288, whole entry: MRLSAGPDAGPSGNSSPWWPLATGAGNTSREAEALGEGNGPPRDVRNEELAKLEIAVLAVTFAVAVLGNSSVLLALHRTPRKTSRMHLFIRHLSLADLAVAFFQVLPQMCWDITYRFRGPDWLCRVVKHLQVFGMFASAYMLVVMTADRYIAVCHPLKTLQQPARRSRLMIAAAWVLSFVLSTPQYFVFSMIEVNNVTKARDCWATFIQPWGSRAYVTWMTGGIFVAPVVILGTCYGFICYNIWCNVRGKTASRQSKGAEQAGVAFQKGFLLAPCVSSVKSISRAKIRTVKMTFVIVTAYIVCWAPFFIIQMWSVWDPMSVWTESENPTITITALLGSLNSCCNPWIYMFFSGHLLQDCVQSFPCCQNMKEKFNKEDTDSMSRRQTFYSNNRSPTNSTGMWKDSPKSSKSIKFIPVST

human V1a receptor = human V1a receptor (Homo sapiens, UniProt P37288); experiment: as above; conditions: read-out: IC50 hV1a; CHO cell line transfected with the human V1a receptor; agonist [Arg8]-vasopressin
Text: as §1, §2, §3

- IC50 (human V2 receptor): 5.4 nM
- IC50 (human V1a receptor): 3 nM
SMILES: NC(=O)OCC(NC(=O)Cn1nc(-c2ccc(Cl)cc2)n(C[C@H](O)C(F)(F)F)c1=O)c1cccc(Cl)c1F (some centres unmarked)

From patent US8796324B2, “Substituted 2-acetamido-5-aryl-1,2,4-triazolones and use thereof” (Bayer Intellectual Property GmbH, priority 2009, dated 2014)
